These results are taken from US5710169A, “Therapeutic heterocycles” (Zeneca Limited, priority 1994, dated 1998).

By UniProt entry, the sequences of proteins in these tests, tags left out.
UniProt P21452, whole entry: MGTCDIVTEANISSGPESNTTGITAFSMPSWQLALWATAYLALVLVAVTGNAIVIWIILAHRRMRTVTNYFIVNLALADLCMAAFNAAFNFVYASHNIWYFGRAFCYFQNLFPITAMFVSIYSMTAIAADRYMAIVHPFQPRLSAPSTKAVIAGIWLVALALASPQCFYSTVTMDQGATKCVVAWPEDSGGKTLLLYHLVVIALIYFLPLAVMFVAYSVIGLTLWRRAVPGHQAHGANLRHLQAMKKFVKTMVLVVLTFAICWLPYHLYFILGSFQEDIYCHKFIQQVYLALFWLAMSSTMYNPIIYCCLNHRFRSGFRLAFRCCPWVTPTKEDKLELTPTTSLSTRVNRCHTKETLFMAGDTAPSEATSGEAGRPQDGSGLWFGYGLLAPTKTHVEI

For this assay, the target named is human NK2 receptor (Homo sapiens, UniProt P21452). Kind of assay: Neurokinin A (NKA) Receptor Binding Assay (Test B), human NK2 receptor expressed in MEL cells. The conditions noted are these: read-out: IC50 versus ^3 H-NKA binding to MELM, standard compound, initial use of assay. From the text:
Neurokinin A (NKA) Receptor Binding Assay (Test B)
The selectivity of a Compound for binding at the NK1 and the NK2 receptors may be shown by determining its binding at other receptors using standard assays, for example, one using a tritiated derivative of NKB in a tissue preparation selective for NK3 receptors.

`CSCC[C@@H]1NC(=O)[C@H](CC(C)C)NC(=O)CNC(=O)[C@H](Cc2ccccc2)NC(=O)[C@H](Cc2c[nH]c3ccccc23)NC(=O)[C@H](CCC(N)=O)NC1=O`: the IC50 was found to be 30 nM.
